In general, inhibition refers to the change of the read-out against control, counted positive when it falls.

Amino acid sequences for entries named in this document (tags omitted).
UniProt Q4J6C6, whole entry, looked up: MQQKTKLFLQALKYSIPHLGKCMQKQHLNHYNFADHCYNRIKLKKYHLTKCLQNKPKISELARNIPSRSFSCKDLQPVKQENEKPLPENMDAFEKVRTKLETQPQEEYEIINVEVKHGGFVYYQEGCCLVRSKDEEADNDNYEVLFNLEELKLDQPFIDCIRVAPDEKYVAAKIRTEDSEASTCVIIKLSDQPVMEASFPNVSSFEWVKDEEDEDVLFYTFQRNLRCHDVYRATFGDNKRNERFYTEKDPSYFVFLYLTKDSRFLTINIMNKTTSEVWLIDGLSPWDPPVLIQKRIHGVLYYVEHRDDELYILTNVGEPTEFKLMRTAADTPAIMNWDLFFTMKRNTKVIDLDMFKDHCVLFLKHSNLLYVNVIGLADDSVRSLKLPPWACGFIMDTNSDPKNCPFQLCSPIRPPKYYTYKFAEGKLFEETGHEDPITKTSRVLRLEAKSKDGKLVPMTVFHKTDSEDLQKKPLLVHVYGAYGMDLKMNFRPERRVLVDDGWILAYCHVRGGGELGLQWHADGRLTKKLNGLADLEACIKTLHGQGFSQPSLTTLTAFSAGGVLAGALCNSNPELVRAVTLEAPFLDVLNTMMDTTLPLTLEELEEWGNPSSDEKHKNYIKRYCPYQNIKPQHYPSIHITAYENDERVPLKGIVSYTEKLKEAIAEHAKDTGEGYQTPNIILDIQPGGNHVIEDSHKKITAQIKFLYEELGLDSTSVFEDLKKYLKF

Molecules are shown by their SMILES. The entries are a selection whose mix differs from that of the whole data set. Activity calls are given as the source filed them. Rule as the data show it: active = inhibition above about 43%; inactive = the rest.

This assay deals with Prolyl endopeptidase-like (Homo sapiens) (UniProt Q4J6C6). The experiment in a line: human PREPL activity-probe blockers – biochemical, fluorescence polarization, primary screen (AID 2751).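 Also: 0% = enzyme with DMSO and 100% = wells lacking enzyme.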 Conditions: recombinant PREPL, fluorescence polarization activity-based probe; at 5.96 µM; stronger effect = higher value.
On to `O=P(Nc1nccs1)(c1ccccc1)c1nc2ccccc2s1` (stereo not given), for which the inhibition is inactive: -1.92%.
Under `CCOP1(=S)c2c(C)nn(CCC#N)c2N=C(c2ccccc2F)N1C` (stereo not given) stands inactive: 4.67%; under `Nc1ccccc1[As](=O)(O)c1ccccc1`, inactive: 2.52%; under `O=C(O)COc1ccc([As](=O)(O)O)cc1[N+](=O)[O-]`, inactive: 11.7%.
Under `NC(=O)Nc1ccc([As](=O)(O)O)cc1` stands inactive: -1.1%; under `CN(C(=O)Cc1ccc(Cl)c(Cl)c1)[C@H]1CC[C@@]2(CCCO2)C[C@@H]1N1CCCC1`, inactive: 37.7%.
In the case of `O=[N+]([O-])c1ccc2c(c1)nnn2O`, the inhibition is inactive: 3.64%.
For the molecule `CN(C)C(=O)c1cc([N+](=O)[O-])cc2c1-c1c(cc([N+](=O)[O-])cc1[N+](=O)[O-])C2=O`, the inhibition was inactive: 37.1%.
Under `CN(C(=O)Cc1ccccc1)[C@@H]1CC[C@]2(CCCO2)C[C@H]1N1CCCC1` stands inactive: 4.58%.
Consider `CCOP1(=S)c2c(C)nn(CCC#N)c2N=C(c2ccc(F)cc2)N1C` (stereo not given), for which the inhibition is inactive: 28.6%.
Under `N#CCCN(C(=O)COC(=O)C(O)(c1ccccc1)c1ccccc1)c1ccc(F)cc1` stands inactive: 6.18%; under `CS(=O)(=O)c1ccc(Cl)c(NC(=O)COC(=O)C(O)(c2ccccc2)c2ccccc2)c1`, inactive: 2.03%.
Under `O=[As](O)(O)c1cccnc1` stands inactive: 12.3%.
Under `COc1cc(C(=O)NCC2(N3CCOCC3)CCCCC2)cc(Cl)c1OC(C)C` stands inactive: 0.7%; under `O=C(OC1CN2CCC1CC2)c1ccc(Cl)cc1` (stereo not given), inactive: -7.52%.
For the molecule `Cc1cccc(OCC(=O)OC2CN3CCC2CC3)c1` (stereo not given), the inhibition is inactive: 10.2%.
Under `O=[As](O)(c1cccc(O)c1)c1cccc(O)c1` stands inactive: 1.42%; under `CCCOP(=S)(Nc1nc(N)cc(=O)[nH]1)OCCC`, inactive: 6.33%.
Under `Cc1ccc(NCCc2c([N+](=O)[O-])cc([N+](=O)[O-])cc2[N+](=O)[O-])cc1` stands inactive: 22.5%.
Under `Nc1cccc2c([As](=O)(O)O)cccc12` stands inactive: 33.7%.
In the case of `CCOP(=O)(Nc1cccc2ccccc12)OCC`, the inhibition was inactive: 5.73%.
Under `COc1cc(C2NCCC3(OCCO3)C2(C)C)cc(OC)c1OC` (stereo not given) stands inactive: 0.63%; under `CCOP(=O)(Nc1ccc(C)cn1)OCC`, inactive: 11.1%.
Under `CN(CCCl)Cc1cc(Cl)c(NC2=NCCN2)c(Cl)c1` stands inactive: 10.8%; under `CCOP(=O)(NC(=NC(C)c1ccccc1)NC(C)c1ccccc1)OCC` (stereo not given), inactive: 13.3%.
Under `O=P1(Nc2ccccn2)COc2ccccc2OC1` stands inactive: 4.77%.
For `CCC1=CC2Cc3nc4ccc(Cl)cc4c(N)c3C(C1)C2` (stereo not given), the inhibition was inactive: 21.6%.
With `CC(C)(C)C(=O)NC(Sc1ncccn1)C(Cl)(Cl)Cl` (stereo not given), the inhibition was inactive: -9.25%.
Under `Clc1n[nH]nc1-c1nn[nH][15n]1` stands inactive: 0.51%; under `COc1ccccc1CNC(=O)COC(=O)C(O)(c1ccccc1)c1ccccc1`, inactive: -0.51%.
On to `CC1(CBr)Cn2c(nc3ccccc3c2=O)S1` (stereo not given), for which the inhibition was inactive: -13.8%.
Under `O=[As](O)(c1ccccc1Br)c1ccccc1Br` stands inactive: 5.67%; under `CC(C)/C=N\N=C(\N)N[N+](=O)[O-]`, inactive: -8.76%.
Under `CN(C(=O)Cc1ccc(Cl)c(Cl)c1)[C@@H]1CCCC[C@H]1N1CCCC1` stands inactive: 41.7%; under `CC1CCC(C(C)C)C(OP(=O)(Nc2ccccn2)c2ccccc2)C1` (stereo not given), inactive: 2.23%; under `Cc1ccc(C(=O)OC2CN3CCC2CC3)cc1` (stereo not given), inactive: -18.1%.
As for `Cc1nn(-c2ccccc2)c2c1P(=O)(N1CCOCC1)N(C)C(c1ccccc1)=N2` (stereo not given), the inhibition was inactive: 2.62%.
Under `O=C(/C=C/c1ccccc1)OC1CN2CCC1CC2` (stereo not given) stands inactive: 1.07%; under `CN(C)C1(CNC(=O)c2ccc(S(C)(=O)=O)cc2)CCCCC1`, inactive: 1.76%.
With `O=P1(Nc2ncccn2)COc2ccccc2OC1`, the inhibition is inactive: 1.02%.
Under `Cc1ccc(OCC(=O)OC2CN3CCC2CC3)cc1` (stereo not given) stands inactive: -7.48%; under `O=[As](O)(c1cccs1)c1cccs1`, inactive: 10.5%; under `O=P1(Nc2ccc(Br)cn2)COc2ccccc2OC1`, inactive: 5.41%.
Under `NS(=O)(=O)c1cccc(NC(=O)COC(=O)C(O)(c2ccccc2)c2ccccc2)c1` stands inactive: -1.45%; under `Nc1cccc([As](=O)(O)c2ccccc2)c1`, inactive: 16.8%.

Source of the values: PubChem BioAssay AID2751 (The Scripps Research Institute Molecular Screening Center, 2010).
